Rows were chosen to be rich in hits. Some 2.9% of all compounds tested hit in one or more screens of this group.
D3 antag – blocks the human D3 dopamine receptor; P35462; D3R cells, DiscoveRx beta-arrestin luminescence, antagonist mode; stronger effect = lower value; max response, negative = inhibition, %; actives 2.5% (n = 360,000); AID 652054; in the data active means max response below about -50%; inconclusive means no clear call, values can overlap the other calls
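Cells expressing the human receptor were seeded at 1500 cells/well, incubated overnight at 37 degrees C in 5% CO2, then exposed to library compounds with dopamine controls for 90 minutes at 37 degrees C before luminescent detection.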
Mm-Cpn inhibitor – inhibitors of Methanococcus maripaludis chaperonin TRiC (MmCpn). purified Mm-Cpn ATPase, ADP Transcreener TR-FRET. Potency, µM (series often up to 76.9 µM), hits mostly inhibitors. actives 0.031% (n = 330,000); active means well fitted inhibition curve with a large enough effect; inconclusive means small, poorly fitted or top-dose-only effect; further: nearly all actives have a fitted effect of over 80% in size
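25 nM Mm-CPN + cpd, 10 min 37°C; + 10 uM ATP, 30 min 37°C; buffer 30 mM Tris pH 7.4, 100 mM KCl, 5 mM MgCl2, 1 mM DTT; Transcreener ADP HTRF detection 30 min RT.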
Rango dissoc inh – inhibition of RanGTP-driven Rango-importin beta dissociation. O95149+P62826. Biochemical FRET Rango-importin beta, RanGTP-induced dissociation. Potency, µM (highest dose often 46.1 µM). actives 0.071% (n = 340,000). AID 540253; further: nearly all actives have a fitted effect of over 45% in size
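Compounds sat 5 min at room temperature with 0.1 uM Rango biosensor plus 0.25 uM importin beta, then FRET pre-read. RanGTP-RCC1 (0.6 uM Ran, 2mM GTP, 0.2 uM RCC1) added for 45 min, and the CFP/YFP post-read measured blocked complex dissociation.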
PTAP TSG101 blk – blocks PTAP/TSG101 interaction to inhibit HIV-1 budding; 340,000 tested, under 10 active; Potency, µM (top dose mostly 115 µM), most hits filed as inhibitors; Fluorescence polarization, FITC-PTAP peptide / Tsg101 binding; active means well fitted inhibition curve with a large enough effect in the main read-out, with a control signal flat, not every such curve was filed as active; inconclusive means small, poorly fitted or top-dose-only effect, or effect the other way, or a change in a side signal; inactive means no such curve, though single readings can be large or run the other way
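Compounds were pin-transferred onto Tsg101 binding domain (10 uM final) in HEPES pH 7.5 buffer, then FITC-PTAP peptide was added at 50 nM final. After 20 min at RT, polarization reported peptide displacement across a qHTS concentration series.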
Rango complex inh – Rango-importin beta binding inhibition. Q14974. Rango CFP/YFP FRET sensor + importin beta, 45 min. Potency, µM (titrated, usually from 92.2 µM). actives 0.031% (n = 340,000); further: nearly all actives have a fitted effect of over 15% in size
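FRET biosensor Rango (snurportin 1 IBB between N-terminal EYFP and C-terminal Cerulean), 50 nM in PBS/1 mM DTT/0.02% Tween-20/0.1% BSA, preincubated 5 min RT with compound; 0.125 microM importin beta added, 45 min RT, CFP/YFP FRET ratio read.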
DRD3 agonist – D3 dopamine receptor (human) agonism; D3R DiscoveRx beta-arrestin cells, luminescence, 90 min; max activation, %; actives 0.58% (n = 410,000); AID 652048; in the data active means max activation above about 30%
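Agonist mode: compounds and dopamine controls were applied to plated cells for 90 min at 37 degrees C after an overnight attachment at 1500 cells/well. Luminescent read-out followed 30 - 60 minutes at room temperature with DiscoveRx detection reagent.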
Hits are given with their value; . = inactive; ? = inconclusive; / = not tested or not shown. Unless noted, the call rests on the fitted dose curve.

SMILES	D3 antag	Mm-Cpn inhibitor	Rango dissoc inh	PTAP TSG101 blk	Rango complex inh	DRD3 agonist
CC(C)(C)n1nnnc1C(c1cc2ccccc2o1)N1CCC2(CC1)C(=O)NCN2c1ccccc1 (stereo unspecified)	-99	/	/	/	/	.
CNC(C)Cc1ccccc1Sc1ccc(O)cc1 (stereo unspecified)	-73	.	.	.	.	.
CNC(C)C(O)c1ccc(O)cc1 (stereo unspecified)	/	/	/	/	/	.
COc1cccc(Cn2c(=O)oc3ccccc32)c1	.	.	.	.	.	.
c1cc2c(c(N3CCNCC3)c1)OCCO2	/	/	/	/	/	.
Cc1cc(C)cc(N2C(=O)/C(=C\c3ccc(N4CCN(C)CC4)o3)C(=O)NC2=S)c1	.	.	?	?	52µM	.
C=CCN1C(=O)/C(=C/c2ccc(N3CCOCC3)o2)C(=O)NC1=S	.	.	.	.	58µM	.
Cc1ccc(/C=C2\C(=O)NC(=S)N(c3ccc(F)cc3)C2=O)o1	.	.	?	.	?	.
O=C1NC(=O)C(=Cc2ccc(N3CCOCC3)o2)C(=O)N1	?	.	.	?	?	.
CO/C=C(/C(=O)OC)c1ccccc1Oc1cc(Oc2ccccc2C#N)ncn1	/	/	/	/	/	.
CCC/C=C/C=C/C(=O)O[C@H]1/C(=C/C(=O)OC)C[C@H]2C[C@H]([C@@H](C)O)OC(=O)C[C@H](O)C[C@@H]3C[C@H](OC(C)=O)C(C)(C)[C@](O)(C[C@@H]4C/C(=C/C(=O)OC)C[C@H](/C=C/C(C)(C)[C@]1(O)O2)O4)O3	/	/	/	/	/	.
CC[C@H]1CN2CCC1C[C@@H]2[C@@H](O)c1ccnc2ccc(OC)cc12 (stereo partly specified)	-63	/	.	.	.	.
CC[C@H]1CN2CCC1C[C@H]2[C@H](O)c1ccnc2ccc(OC)cc12 (stereo partly specified)	.	.	.	.	.	.
C=CCn1c(O)c(C=Nc2ccc(Cc3ccncc3)cc2)c(=O)[nH]c1=S	.	.	.	.	?	.
COC1=CC=C2[C@H]3Cc4ccc(OC)c5c4[C@@]2(CCN3C)[C@H]1O5	-66	.	.	.	.	.
Cc1cc(C)cc(N2C(=O)NC(=O)/C(=C\c3cccn3-c3ccccc3)C2=O)c1	?	.	.	.	.	.
Cc1cc(C)cc(N2C(=O)NC(=O)/C(=C\c3cccn3-c3ccc(Cl)cc3)C2=O)c1	-72	.	.	.	.	.
CCS(=O)(=O)Nc1ccc(C2=NN(C(=O)c3ccco3)C(c3ccc(Cl)o3)C2)cc1 (stereo unspecified)	.	.	.	.	?	.
CCC(=O)O[C@H]1[C@@H](N2CCCCC2)C[C@H]2[C@@H]3CC[C@H]4C[C@H](OC(C)=O)[C@@H](N5CCCCC5)C[C@]4(C)[C@H]3CC[C@@]21C	/	/	/	/	/	.
C=CCN1CCc2cccc3c2[C@H]1Cc1ccc(O)c(O)c1-3	.	.	.	.	.	116
C=CCN1CC[C@]23c4c5ccc(O)c4O[C@H]2[C@@H](O)C=C[C@H]3[C@H]1C5	/	/	/	/	/	.
CCc1ccc2c(c1)Sc1ccccc1CC2N1CCN(C)CC1 (stereo unspecified)	-116	/	.	.	.	.
Cc1cc(O)c(CN2CC=C(c3ccccc3)CC2)cc1C(C)C	-73	.	.	.	.	.
CC(=O)/C=C/c1ccccc1	.	.	.	.	?	.
CC1=C(/C=C/c2ccccc2)CCN(C)C1	-63	.	.	/	.	.
SMILES	D3 antag	Mm-Cpn inhibitor	Rango dissoc inh	PTAP TSG101 blk	Rango complex inh	DRD3 agonist
C=CCC1=C(C)C(OC(=O)C2C(C=C(C)C)C2(C)C)CC1=O (stereo unspecified)	/	/	/	/	/	.
CCOc1ccc(-n2c(O)c(N=Nc3c(C)n(C)n(-c4ccccc4)c3=O)c(=O)[nH]c2=O)cc1	.	.	.	.	.	.
C=CCn1c(O)c(N=Nc2c(C)n(C)n(-c3ccccc3)c2=O)c(=O)[nH]c1=S	-57	.	?	.	?	.
Cc1c(N=Nc2c(O)[nH]c(=S)[nH]c2=O)c(=O)n(-c2ccccc2)n1C	-66	.	?	.	.	.
O=C1NCCOC(=O)[C@@H](Cc2ccc(F)cc2)CC/C=C/C[C@H]1CC(=O)N(CCO)Cc1ccccc1	.	.	.	.	.	.
O.O.O.O=C([O-])C(O)C(O)C(=O)[O-].O=C([O-])C(O)C(O)C(=O)[O-].[K+].[K+].[Sb].[Sb] (stereo unspecified)	/	/	/	/	/	.
CCC(=NCCc1c[nH]c2ccccc12)c1c(O)n(C)c(=O)n(C)c1=O	.	.	.	.	.	65
CC(N)Cc1ccc2c(c1)OCO2 (stereo unspecified)	/	/	/	/	/	.
O=C(CN1CCOCC1)c1cccc2ccccc12	-55	.	.	.	.	.
COc1ccccc1CN1CCNCC1	.	/	/	/	/	.
Nc1ccc(N2CCN(Cc3ccccc3Cl)CC2)c(Cl)c1	-57	.	.	.	.	.
COc1ccccc1N1CCN(Cc2cccc(OC)c2O)CC1	-101	.	.	.	.	.
COc1ccccc1N1CCN(Cc2ccccc2F)CC1	-92	.	.	.	.	.
COc1ccccc1N1CCN(Cc2c(F)cccc2F)CC1	-69	.	.	.	.	.
COc1nn(CSP(=S)(OC)OC)c(=O)s1	/	/	/	/	/	.
COc1ccccc1N1CCN(Cc2ccccc2Cl)CC1	-88	.	.	.	.	.
COc1ccccc1N1CCN(Cc2ccc(Br)cc2)CC1	-110	.	.	.	.	.
Clc1ccccc1CN1CCN(c2cccc3[nH]ccc23)CC1	-80	.	.	.	.	.

Screening results (PubChem)
